# CycPeptMPDB entries from one study

Source: CycPeptMPDB (Li et al. 2023), which took these values from Townsend et al. 2020, doi:10.26434/chemrxiv.13335941.v1.

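The data file gives no further conditions (lipid, pH, time, direction or concentration), and values from different papers need not be comparable. Other peptides of the study may be missing here. Peptides that the database sets to -10, its floor, are left out.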

PAMPA measures passive passage through an artificial lipid membrane.
Permeability is given as log10 of P in cm/s; higher (less negative) is more permeable.

SMILES	PAMPA (log10 cm/s)
CC(C)C[C@@H]1NC(=O)[C@@H](CC(C)C)N(C)C(=O)C[C@H](Cc2ccccc2)NC(=O)[C@H]2CCCN2C(=O)[C@H](Cc2ccccc2)NC(=O)[C@@H](CC(C)C)NC(=O)[C@H]2CCCN2C1=O	-5.78
CC(C)C[C@H]1C(=O)N[C@@H](Cc2ccccc2)C(=O)N2CCC[C@@H]2C(=O)N(C)[C@@H](C)C(=O)N(C)[C@@H](CC(C)C)C(=O)N(C)[C@@H](CC(C)C)C(=O)N2CCC[C@@H]2C(=O)N1C	-4.95
CC(C)C[C@@H]1NC(=O)[C@@H](CC(C)C)N(C)C(=O)[C@H](C)N(C)C(=O)[C@H](Cc2ccccc2)NC(=O)CN(Cc2ccccc2)C(=O)[C@@H]2CCCN2C1=O	-4.94
CC(C)C[C@@H]1C(=O)N(Cc2ccccc2)CC(=O)N2CCC[C@@H]2C(=O)N[C@H](CC(C)C)C(=O)N[C@@H](Cc2ccccc2)C(=O)N2CCC[C@@H]2C(=O)N[C@@H](C)C(=O)N1C	-5.86
CC(C)C[C@H]1C(=O)N(C)[C@@H](CC(C)C)C(=O)N2CCC[C@H]2C(=O)N(C)[C@@H](CC(C)C)C(=O)N[C@@H](Cc2ccccc2)C(=O)N2CCC[C@H]2C(=O)N(C)[C@H](C)C(=O)N1C	-5.34
CC(C)C[C@@H]1C(=O)N[C@@H](Cc2ccccc2)C(=O)N2CCC[C@@H]2C(=O)N(C)[C@@H](C)C(=O)N[C@H](CC(C)C)C(=O)N(Cc2ccccc2)CC(=O)N2CCC[C@@H]2C(=O)N1C	-5.39
CCCN1CC(=O)N(C)[C@@H](CC(C)C)C(=O)N(Cc2ccccc2)CC(=O)N2CCC[C@H]2C(=O)N(C)[C@H](CC(C)C)C(=O)N[C@@H](Cc2ccccc2)C(=O)N2CCC[C@@H]2C1=O	-5.31
CCCN1CC(=O)N(C)[C@@H](CC(C)C)C(=O)N(C)[C@@H](CC(C)C)C(=O)N2CCC[C@@H]2C(=O)N(Cc2ccccc2)CC(=O)N[C@@H](Cc2ccccc2)C(=O)N2CCC[C@@H]2C1=O	-6.32
CCCN1CC(=O)N(C)[C@H](CC(C)C)C(=O)N(Cc2ccccc2)CC(=O)N2CCC[C@@H]2C(=O)N(C)[C@@H](CC(C)C)C(=O)N[C@@H](Cc2ccccc2)C(=O)N2CCC[C@H]2C1=O	-6.00
CC(C)C[C@@H]1C(=O)N[C@H](CC(C)C)C(=O)N2CCC[C@H]2C(=O)N[C@H](CC(C)C)C(=O)N[C@@H](Cc2ccccc2)C(=O)N2CCC[C@H]2C(=O)N(C)[C@H](C)C(=O)N1C	-5.52
CC(C)C[C@H]1NC(=O)[C@@H](C)N(C)C(=O)[C@H](Cc2ccccc2)NC(=O)CN(Cc2ccccc2)C(=O)[C@H]2CCCN2C(=O)[C@H](CC(C)C)N(C)C1=O	-5.25
CC(C)C[C@@H]1C(=O)N[C@@H](Cc2ccccc2)C(=O)N2CCC[C@@H]2C(=O)N(C)[C@H](C)C(=O)N(C)[C@@H](CC(C)C)C(=O)N[C@H](CC(C)C)C(=O)N2CCC[C@H]2C(=O)N1C	-5.23
CC(C)C[C@@H]1C(=O)N[C@@H](Cc2ccccc2)C(=O)N[C@H](C)C(=O)N[C@H](CC(C)C)C(=O)N[C@H](CC(C)C)C(=O)N2CCC[C@H]2C(=O)N1C	-6.77
CC(C)C[C@@H]1NC(=O)[C@@H]2CCCN2C(=O)C[C@H](Cc2ccccc2)NC(=O)[C@@H](CC(C)C)NC(=O)C[C@H](Cc2ccccc2)NC(=O)[C@@H]2CCCN2C(=O)[C@H](Cc2ccccc2)NC1=O	-5.77
CCCN1CC(=O)N[C@@H](CC(C)C)C(=O)N(Cc2ccccc2)CC(=O)N2CCC[C@@H]2C(=O)N[C@H](CC(C)C)C(=O)N[C@@H](Cc2ccccc2)C(=O)N2CCC[C@@H]2C1=O	-5.75
CC(C)C[C@@H]1NC(=O)[C@H](C)N(C)C(=O)[C@H]2CCCN2C(=O)[C@H](Cc2ccccc2)NC(=O)[C@@H](CC(C)C)N(C)C(=O)[C@@H]2CCCN2C(=O)[C@H](CC(C)C)N(C)C1=O	-5.17
CCCN1CC(=O)N(C)[C@H](CC(C)C)C(=O)N[C@H](CC(C)C)C(=O)N2CCC[C@@H]2C(=O)N[C@@H](CC(C)C)C(=O)N[C@@H](Cc2ccccc2)C1=O	-5.30
CC(C)C[C@@H]1C(=O)N2CCC[C@H]2C(=O)N[C@H](CC(C)C)C(=O)N[C@@H](Cc2ccccc2)C(=O)N(C)[C@@H](C)C(=O)N[C@H](CC(C)C)C(=O)N1C	-4.68
CC(C)C[C@H]1C(=O)N[C@@H](Cc2ccccc2)CC(=O)N2CCC[C@H]2C(=O)N(C)[C@@H](CC(C)C)C(=O)N[C@@H](Cc2ccccc2)C(=O)N(C)[C@@H](C)C(=O)N1C	-4.54

The first 3 entries again:

| SMILES | PAMPA (log10 cm/s) |
|---|---|
| CC(C)C[C@@H]1NC(=O)[C@@H](CC(C)C)N(C)C(=O)C[C@H](Cc2ccccc2)NC(=O)[C@H]2CCCN2C(=O)[C@H](Cc2ccccc2)NC(=O)[C@@H](CC(C)C)NC(=O)[C@H]2CCCN2C1=O | -5.78 |
| CC(C)C[C@H]1C(=O)N[C@@H](Cc2ccccc2)C(=O)N2CCC[C@@H]2C(=O)N(C)[C@@H](C)C(=O)N(C)[C@@H](CC(C)C)C(=O)N(C)[C@@H](CC(C)C)C(=O)N2CCC[C@@H]2C(=O)N1C | -4.95 |
| CC(C)C[C@@H]1NC(=O)[C@@H](CC(C)C)N(C)C(=O)[C@H](C)N(C)C(=O)[C@H](Cc2ccccc2)NC(=O)CN(Cc2ccccc2)C(=O)[C@@H]2CCCN2C1=O | -4.94 |